For ten molecules, K and Activity results are on record in ChEMBL document CHEMBL3259811, “Synthesis and in vitro evaluation of bis-quaternary 2-(hydroxyimino)-N-(pyridin-3-yl)acetamide derivatives as reactivators against sarin and VX inhibited human acetylcholinesterase (hAChE)” (2014).

Protein sequences, listed by entry. Tags and fused reporters are not part of them. Lines headed by an entry give the natural chain unless they say otherwise; changes in a name come on top.
UniProt P22303: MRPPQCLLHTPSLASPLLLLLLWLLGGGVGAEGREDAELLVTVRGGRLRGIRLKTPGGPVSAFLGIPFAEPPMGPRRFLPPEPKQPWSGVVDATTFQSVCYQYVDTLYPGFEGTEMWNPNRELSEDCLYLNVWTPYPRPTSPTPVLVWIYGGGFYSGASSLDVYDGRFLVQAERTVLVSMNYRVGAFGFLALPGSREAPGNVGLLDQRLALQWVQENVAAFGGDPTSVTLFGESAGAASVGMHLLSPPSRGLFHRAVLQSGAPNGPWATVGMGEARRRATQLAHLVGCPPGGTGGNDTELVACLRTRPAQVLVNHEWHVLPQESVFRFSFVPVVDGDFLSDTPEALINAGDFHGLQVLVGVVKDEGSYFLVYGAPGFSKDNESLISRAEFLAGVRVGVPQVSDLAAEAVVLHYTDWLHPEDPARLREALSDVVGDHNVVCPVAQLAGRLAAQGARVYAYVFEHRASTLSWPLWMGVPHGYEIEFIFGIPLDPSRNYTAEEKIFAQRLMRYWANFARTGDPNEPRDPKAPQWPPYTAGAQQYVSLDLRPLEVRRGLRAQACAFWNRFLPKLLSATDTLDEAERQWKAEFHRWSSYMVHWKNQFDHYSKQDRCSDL

Experiment [1] deals with Acetylcholinesterase (Homo sapiens) (UniProt P22303). Briefly: Reactivation of sarin-inhibited hemoglobin free human erythrocyte ghost acetylcholinesterase using acetylthiocholineiodide as substrate assessed as rate constant for displacement of phosphoryl residue from phosphorylated enzyme-compound complex measured up to 1 hr by Ellman method. On the technique in general: DTNB colorimetry detects thiols as they appear.

Experiment [2] has the same target. Briefly: Reactivation of VX-inhibited hemoglobin free human erythrocyte ghost acetylcholinesterase using acetylthiocholineiodide as substrate assessed as rate constant for displacement of phosphoryl residue from phosphorylated enzyme-compound complex measured up to 1 hr by Ellman method.
Experiment [3] shares this target. The experiment in a line: Reactivation of VX-inhibited hemoglobin free human erythrocyte ghost acetylcholinesterase using acetylthiocholineiodide as substrate assessed as second order rate constant measured up to 1 hr by Ellman method.
Experiment [4] shares this target. Briefly: Reactivation of sarin-inhibited hemoglobin free human erythrocyte ghost acetylcholinesterase using acetylthiocholineiodide as substrate assessed as second order rate constant measured up to 1 hr by Ellman method.
For experiment [5] the target is unchanged. Briefly: Reactivation of sarin-inhibited hemoglobin free human erythrocyte ghost acetylcholinesterase using acetylthiocholineiodide as substrate at 0.1 to 1 mM by Ellman method.
For experiment [6] the target is unchanged. Briefly: Reactivation of sarin-inhibited hemoglobin free human erythrocyte ghost acetylcholinesterase using acetylthiocholineiodide as substrate measured up to 1 hr by Ellman method.
The target is the same in experiment [7]. Briefly: Reactivation of VX-inhibited hemoglobin free human erythrocyte ghost acetylcholinesterase using acetylthiocholineiodide as substrate measured up to 1 hr by Ellman method.
Experiment [8] shares this target. Briefly: Reactivation of VX-inhibited hemoglobin free human erythrocyte ghost acetylcholinesterase using acetylthiocholineiodide as substrate at 0.1 to 1 mM by Ellman method.

As to `C[n+]1ccccc1C=NO`, the K was determined as 0.06 min⁻¹ in experiment [1], 0.11 min⁻¹ in experiment [2], 59.8 M⁻¹ s⁻¹ in experiment [3] and 37.2 M⁻¹ s⁻¹ in experiment [4].

For the molecule `O=C(/C=N\O)Nc1ccc[n+](CCCC[n+]2cccc(NC(=O)/C=N\O)c2)c1`, the K in experiment [1] is 0.08 min⁻¹; in experiment [2], 0.23 min⁻¹; in experiment [3], 43.8 M⁻¹ s⁻¹; in experiment [4], 24.3 M⁻¹ s⁻¹.

Regarding `O=C(/C=N\O)Nc1ccc[n+](CCC[n+]2cccc(NC(=O)/C=N\O)c2)c1`, the K came out at 0.06 min⁻¹ in experiment [1], 0.23 min⁻¹ in experiment [2], 43.7 M⁻¹ s⁻¹ in experiment [3] and 18.3 M⁻¹ s⁻¹ in experiment [4].

Regarding `O=C(/C=N\O)Nc1ccc[n+](CCCCCCC[n+]2cccc(NC(=O)/C=N\O)c2)c1`, the K is 0.12 min⁻¹ in experiment [1], 0.13 min⁻¹ in experiment [2], 32.5 M⁻¹ s⁻¹ in experiment [3] and 23.7 M⁻¹ s⁻¹ in experiment [4].

`O=C(/C=N/O)Nc1ccc[n+](Cc2ccccc2C[n+]2cccc(NC(=O)/C=N/O)c2)c1`: the K was 0.05 min⁻¹ in experiment [1], 0.05 min⁻¹ in experiment [2], 57.8 M⁻¹ s⁻¹ in experiment [3] and 37.3 M⁻¹ s⁻¹ in experiment [4].

As to `O=C(/C=N/O)Nc1ccc[n+](CC[n+]2cccc(NC(=O)/C=N/O)c2)c1`, the K in experiment [1] was determined as 0.05 min⁻¹; in experiment [2] it was 0.2 min⁻¹; in experiment [3], 69.5 M⁻¹ s⁻¹; in experiment [4], 20.8 M⁻¹ s⁻¹.

On to `O=C(/C=N\O)Nc1ccc[n+](CCCCCC[n+]2cccc(NC(=O)/C=N\O)c2)c1`, for which the K in experiment [1] is 0.05 min⁻¹; in experiment [2] it was 0.07 min⁻¹; in experiment [3], 66.2 M⁻¹ s⁻¹; in experiment [4], 36 M⁻¹ s⁻¹.

Regarding `O=C(/C=N/O)Nc1ccc[n+](Cc2cccc(C[n+]3cccc(NC(=O)/C=N/O)c3)c2)c1`, the K was determined as 0.1 min⁻¹ in experiment [1], 0.12 min⁻¹ in experiment [2], 36.2 M⁻¹ s⁻¹ in experiment [3] and 36 M⁻¹ s⁻¹ in experiment [4].

Take `O=C(/C=N/O)Nc1ccc[n+](Cc2ccc(C[n+]3cccc(NC(=O)/C=N/O)c3)cc2)c1`: the K in experiment [1] came out at 0.09 min⁻¹; in experiment [2] it was 0.09 min⁻¹; in experiment [3], 84 M⁻¹ s⁻¹; in experiment [4] it was 181 M⁻¹ s⁻¹.

In the case of `O=C(/C=N\O)Nc1ccc[n+](CCCCC[n+]2cccc(NC(=O)/C=N\O)c2)c1`, the K in experiment [1] stood at 0.05 min⁻¹; in experiment [2], 0.07 min⁻¹; in experiment [3], 62.7 M⁻¹ s⁻¹; in experiment [4], 25 M⁻¹ s⁻¹. Also, the Activity result is “tde” in experiment [5], “Dose-dependent effect” in experiment [6], “Dose-dependent effect” in experiment [7] and “tde” in experiment [8].
